# Patent publication US6291677A, “Compounds having activity as inhibitors of cytochrome P450RAI” (Allergan Sales, Inc., priority 2000, dated 2001)
# Amino acid sequences for entries named in this document (tags omitted). Residues count along the entry.
# UniProt P10826, 1-448 isoform P10826-2: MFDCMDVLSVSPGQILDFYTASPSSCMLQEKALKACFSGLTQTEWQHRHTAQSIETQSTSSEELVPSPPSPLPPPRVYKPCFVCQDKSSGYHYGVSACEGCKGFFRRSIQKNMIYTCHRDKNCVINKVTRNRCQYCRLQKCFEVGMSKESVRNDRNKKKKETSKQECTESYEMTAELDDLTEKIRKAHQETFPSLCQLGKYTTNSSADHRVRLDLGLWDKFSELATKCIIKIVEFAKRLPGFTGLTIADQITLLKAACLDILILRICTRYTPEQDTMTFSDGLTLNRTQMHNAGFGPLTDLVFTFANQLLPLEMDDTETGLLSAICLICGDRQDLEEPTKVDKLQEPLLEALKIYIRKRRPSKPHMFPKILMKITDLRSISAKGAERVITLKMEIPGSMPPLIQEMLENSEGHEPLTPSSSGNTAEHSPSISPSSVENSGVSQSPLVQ
# Tests used:
# [1] = target: RARβ (Homo sapiens, UniProt P10826); experiment: ligand binding assay, RARβ
# [2] = target: T1, P450RAI-1 (Homo sapiens, UniProt O43174); experiment: cell-based; conditions: read-out: P450RAI INHIBITION DATA INTACT HELA IC50
# T1 sequence (O43174 1-497): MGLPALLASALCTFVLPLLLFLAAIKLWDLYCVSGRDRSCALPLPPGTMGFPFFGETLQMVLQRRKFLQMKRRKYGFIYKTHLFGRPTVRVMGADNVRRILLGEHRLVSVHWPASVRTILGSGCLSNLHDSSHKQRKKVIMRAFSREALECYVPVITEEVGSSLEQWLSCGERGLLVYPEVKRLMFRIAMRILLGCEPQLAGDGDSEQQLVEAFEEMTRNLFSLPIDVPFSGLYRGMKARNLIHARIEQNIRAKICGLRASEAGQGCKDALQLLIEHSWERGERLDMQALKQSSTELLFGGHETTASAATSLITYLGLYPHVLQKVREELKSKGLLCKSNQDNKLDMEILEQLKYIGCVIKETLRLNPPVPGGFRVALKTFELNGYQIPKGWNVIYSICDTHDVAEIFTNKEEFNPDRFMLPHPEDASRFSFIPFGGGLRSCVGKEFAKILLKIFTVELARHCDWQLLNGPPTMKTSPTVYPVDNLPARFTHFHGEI
smiles,measurement,setting,value
"CN(Cc1ccccc1)C1(c2ccc(C#Cc3ccc(C(=O)O)cc3)cc2)CC1 [Compound 116, 4-[4-(1-Benzylmethylamino-cyclopropyl)-phenylethynyl]-benzoic acid]",Kd,[1],732 nM
"Cc1cc(C#Cc2ccc(C(=O)O)cc2)ccc1Cn1ccnc1 [Compound 119, 4-(4-Imidazol-1-yl-methyl-3-methyl-phenylethynyl)-benzoic acid]",IC50,[2],400 nM
"CC(C)c1cc(C#Cc2ccc(CC(=O)O)cc2)ccc1Cn1ccnc1 [Compound 127, [4-(4-Imidazol-1-yl-methyl-3-isopropyl-phenylethynyl)-phenyl]-acetic acid]",IC50,"[2]; intact HeLa, P450RAI-1 stably transfected, [3H]-RA, 3 hours at 37° C",400 nM

# Like-named read-outs stand apart in the source and are kept apart here.
